{"sequences": {"note": "The chains behind the UniProt entries cited, without tags or fusion partners.", "UniProt P42866, whole entry": "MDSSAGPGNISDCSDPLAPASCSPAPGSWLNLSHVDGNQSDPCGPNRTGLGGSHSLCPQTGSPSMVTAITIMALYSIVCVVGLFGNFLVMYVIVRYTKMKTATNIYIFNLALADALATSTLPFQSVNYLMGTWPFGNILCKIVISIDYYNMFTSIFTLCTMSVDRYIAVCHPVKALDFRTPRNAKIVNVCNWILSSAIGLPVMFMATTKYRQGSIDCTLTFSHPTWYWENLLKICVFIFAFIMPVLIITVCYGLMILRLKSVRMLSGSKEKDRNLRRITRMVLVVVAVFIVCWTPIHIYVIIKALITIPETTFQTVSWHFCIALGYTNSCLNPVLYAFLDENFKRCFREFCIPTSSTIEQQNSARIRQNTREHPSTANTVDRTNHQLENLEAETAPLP"}, "source": "paper PMC11091828", "about": "(Journal of medicinal chemistry, 2023)", "target": "mMOR (Mus musculus, UniProt P42866)", "assay": "BRET Nb33 recruitment at MOR, HEK 293T cells", "assay_type": "cell-based", "details": "NA = No Activity at the highest tested concentration", "data": [{"smiles": "COc1ccsc1CNCC[C@@]1(c2ccccn2)CCOC2(CCCC2)C1", "note": "[compound 3, TRV130, reference compound]", "values": [{"measurement": "MOR Nb33 recruitment pEC50 ± SEM", "result": "7.23 ± 0.08"}]}]}
